Data from patent US7642274B2, “Inhibitor of pain threshold decrease” (Santen Pharmaceutical Co., Ltd., priority 2003, dated 2010).

System: repetitive cold stress rat models
Experiment: Test for inhibition of pain threshold decrease by repetitive cold stress (continuous administration), Randall-Selitto method
Format: in vivo
Conditions: day 8 after applying the repetitive cold stress; subcutaneously 3 mg/kg once a day; with stress; average of 5 or 6 cases

Compound | Rate of inhibition of pain threshold decrease (%)
CN(C(=O)Cc1ccc(Cl)c(Cl)c1)C1CCC2(CCCO2)CC1N1CCCC1 (relative stereo) | 40.4%
CN(C(=O)Cc1ccc(Cl)c(Cl)c1)[C@@H]1CCCC[C@H]1N1CCCC1.CS(=O)(=O)O (relative stereo) | 59.6%
